# Laboratory results: PubChem BioAssay AID873 (PCMD, 2007)
# Sequences of proteins named here, by UniProt entry; tags and fusion partners are left off.
# UniProt Q9Y337, whole entry, looked up: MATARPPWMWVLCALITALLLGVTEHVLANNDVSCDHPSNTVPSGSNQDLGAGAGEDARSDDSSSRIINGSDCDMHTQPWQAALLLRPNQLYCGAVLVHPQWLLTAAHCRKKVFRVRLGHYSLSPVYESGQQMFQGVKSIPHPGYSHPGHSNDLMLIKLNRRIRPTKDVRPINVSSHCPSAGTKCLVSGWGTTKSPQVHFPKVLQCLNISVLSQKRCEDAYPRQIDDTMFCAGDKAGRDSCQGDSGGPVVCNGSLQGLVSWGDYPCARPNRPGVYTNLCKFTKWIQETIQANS
# This is a selection; strong and weak results do not stand in their true shares. Calls of active or inactive are those of the source.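 The calls were made as follows: active = inhibition of 40% or more; inactive = the rest.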
# Target: Kallikrein-5 (Homo sapiens) (UniProt Q9Y337)
# Assay: inhibition of kallikrein 5 (hK5) activity – biochemical, 1536-well, primary screen (AID 873);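 also: 0% = enzyme controls without compound and 100% = no-enzyme blanks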
# Settings: recombinant hK5, fluorogenic AMC substrate cleavage; at 5 µM; stronger effect = higher value
row,Compound,inhibition
1,Cc1ccc(OP(=O)(Nc2ccccn2)Oc2ccc(C)cc2)cc1,inactive: -1.72%
2,CC(=O)NC(SC(=S)N(CC(C)C)CC(C)C)C(Cl)(Cl)Cl (stereo not drawn),inactive: 23.2%
3,COC(=O)c1cc2c(s1)N=C(c1ccccc1)N(C)P2(=O)N1CCOCC1 (stereo not drawn),inactive: -6.79%
4,CCC(=O)N1C2C3N(C(=O)CC)C1C1N(C(=O)CC)C(C(N1C(=O)CC)N3C(=O)CC)N2C(=O)CC,inactive: -25.1%
5,CN(C)C(=O)Oc1noc2ccccc12,inactive: 4.65%
6,O=c1c2cc([N+](=O)[O-])ccc2[nH]c2c([N+](=O)[O-])cc([N+](=O)[O-])cc12,inactive: 4.46%
7,Cc1ccccc1OP(=O)(Nc1ccccn1)Oc1ccccc1C,inactive: 4.08%
8,CCNC(=S)/N=C(\N)N[N+](=O)[O-],inactive: -24.8%
9,O=C(NC1CCS(=O)(=O)C1)NP(=S)(Oc1ccccc1)Oc1ccccc1 (stereo not drawn),inactive: -1.49%
10,CCOC(=O)NC(Sc1ccccc1)C(Cl)(Cl)Cl (stereo not drawn),inactive: -11.2%
11,Cc1ccc(NP(=O)(Oc2cccc(C)c2)Oc2cccc(C)c2)nc1,inactive: 2.76%
12,c1ccc(-c2nn[nH]n2)c(-c2nn[nH]n2)c1,inactive: -2.15%
13,O=[N+]([O-])c1ncn(CCn2cnc([N+](=O)[O-])n2)n1,inactive: -2.32%
14,CC(=O)NC(SC(=S)N(C)C)C(Cl)(Cl)Cl (stereo not drawn),inactive: -11.2%
15,O=[As](O)(c1ccccc1)c1ccc(O)cc1,inactive: 9.11%
16,Nc1ccc([As](=O)(O)c2ccc([N+](=O)[O-])cc2)cc1,inactive: -7.39%
17,C(Cc1nn[nH]n1)Cc1nn[nH]n1,inactive: -15.9%
18,O=C(OC1CN2CCC1CC2)c1cccc(Cl)c1 (stereo not drawn),inactive: -10.4%
19,O=P(Nc1ccccn1)(c1ccc(Br)cc1)c1ccc(Br)cc1,inactive: -0.41%
20,C[C@H]1OP(=O)(Oc2ccccc2)[C@H](O)[C@H](O)[C@H]1N=[N+]=[N-] (stereo partly drawn),inactive: 1.48%
21,O=P(Nc1nc2ccccc2s1)(c1ccccc1)c1ccccc1,inactive: -13.7%
22,CC(C)C(=O)NC(Sc1ccccc1)C(Cl)(Cl)Cl (stereo not drawn),inactive: -0.58%
23,O=P(Nc1nccs1)(c1ccccc1)c1ccccc1,inactive: -0.74%
